Assay results reported in patent US20220151962A1, “NOVEL INHIBITORS OF HISTONE DEACETYLASE 10” (Deutsches Krebsforschungszentrum, priority 2019, published 2022).
pIC50: −log10 of the molar value.

Sequences of proteins named here, by UniProt entry; tags and fusion partners are left off. A change or cut given only in a name is not applied to a line headed by its entry.
UniProt O15379: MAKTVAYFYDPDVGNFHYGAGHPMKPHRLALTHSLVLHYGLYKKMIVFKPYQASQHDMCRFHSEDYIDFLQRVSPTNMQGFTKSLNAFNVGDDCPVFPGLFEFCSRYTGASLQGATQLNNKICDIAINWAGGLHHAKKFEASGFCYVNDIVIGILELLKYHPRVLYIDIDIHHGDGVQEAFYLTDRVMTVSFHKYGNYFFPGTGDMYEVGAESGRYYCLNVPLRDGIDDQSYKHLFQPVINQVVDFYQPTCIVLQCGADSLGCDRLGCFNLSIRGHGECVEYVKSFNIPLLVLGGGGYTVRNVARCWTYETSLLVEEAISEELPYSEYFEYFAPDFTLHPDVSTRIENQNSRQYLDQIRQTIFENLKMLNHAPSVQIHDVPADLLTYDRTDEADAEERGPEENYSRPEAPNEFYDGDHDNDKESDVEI

Experiments:
HDAC3/NcoR2 complex = target: T1, HDAC3/NcoR2 complex (Homo sapiens, UniProt O15379); test: HDAC-Glo I/II assay, HDAC3/NcoR2 complex; assay type: biochemical; settings: recombinant human HDAC3/NcoR2 complex, read-out: pIC50 HDAC3 Glo (converted)
T1 construct: purchased BPS Bioscience 50003

TwinStrep-GST-HDAC10 = target: T2, TwinStrep-GST-HDAC10 (Homo sapiens, UniProt Q969S8); test: HDAC10 TR-FRET assay (Tubastatin-AF647-Tracer displacement); assay type: binding; settings: 60 min at rt, read-out: pIC50 HDAC10 FRET (converted)
T2 construct: made in house; host or cells: Sf21 insect cells (baculovirus, pFastBac1)
T2 sequence (Q969S8 1-669): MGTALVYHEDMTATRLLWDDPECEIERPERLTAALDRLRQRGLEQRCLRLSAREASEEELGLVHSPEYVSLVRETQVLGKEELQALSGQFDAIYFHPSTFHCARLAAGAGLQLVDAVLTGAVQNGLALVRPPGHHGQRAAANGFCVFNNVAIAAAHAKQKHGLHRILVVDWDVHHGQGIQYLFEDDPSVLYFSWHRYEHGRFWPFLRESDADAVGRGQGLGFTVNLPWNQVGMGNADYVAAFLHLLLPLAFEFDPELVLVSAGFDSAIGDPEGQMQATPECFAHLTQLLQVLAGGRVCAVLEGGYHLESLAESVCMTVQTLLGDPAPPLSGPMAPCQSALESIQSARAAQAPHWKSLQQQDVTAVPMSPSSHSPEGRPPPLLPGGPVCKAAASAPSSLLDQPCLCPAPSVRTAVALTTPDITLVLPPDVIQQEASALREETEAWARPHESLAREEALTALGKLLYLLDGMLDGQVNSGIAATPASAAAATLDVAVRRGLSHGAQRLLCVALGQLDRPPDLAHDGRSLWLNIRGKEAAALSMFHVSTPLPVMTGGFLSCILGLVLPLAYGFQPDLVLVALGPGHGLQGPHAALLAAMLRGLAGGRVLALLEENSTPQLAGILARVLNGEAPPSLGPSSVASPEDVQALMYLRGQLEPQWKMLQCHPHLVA

[1] = target: T3, HDAC10-nanoluciferase fusion in HeLa cells (Homo sapiens, UniProt Q969S8); test: BRET intracellular target engagement assay, HDAC10
T3 sequence (Q969S8 1-669): T2 sequence (Q969S8 1-669)

Work on `CN(CCCC(=O)NO)CCNC(=O)c1c2ccccc2cc2ccccc12` [DKFZ-771, N-(2-((4-(Hydroxyamino)-4-oxobutyl)(methyl)amino)ethyl)anthracene-9-carboxamide] yielded an IC50 (HDAC3/NcoR2 complex) of roughly 25.1 µM, an IC50 (TwinStrep-GST-HDAC10) of 2.51 nM and a pIC50 [1] of 7.90. For the same molecule, the “HDAC10/6 fold selectivity (BRET)” value ([1]; HDAC10 over HDAC6, from BRET) was 316 fold.
